What is called inhibition is the relative decrease from the control value, in per cent.

Sequences of proteins named here, by UniProt entry; tags and fusion partners are left off.
UniProt P21462, whole entry: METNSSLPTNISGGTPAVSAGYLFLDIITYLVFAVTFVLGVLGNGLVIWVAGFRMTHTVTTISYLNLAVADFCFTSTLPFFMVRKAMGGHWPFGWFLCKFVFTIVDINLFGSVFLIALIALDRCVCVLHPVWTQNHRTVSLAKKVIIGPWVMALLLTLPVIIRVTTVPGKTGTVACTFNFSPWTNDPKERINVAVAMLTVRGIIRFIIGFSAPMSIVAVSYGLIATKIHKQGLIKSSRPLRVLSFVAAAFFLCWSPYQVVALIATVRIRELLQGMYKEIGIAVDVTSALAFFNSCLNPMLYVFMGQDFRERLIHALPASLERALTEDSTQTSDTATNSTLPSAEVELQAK

Structures are written as SMILES. Only a part is listed here, and it is no random draw. Some tests of the compounds listed are not included; inactive here does not mean inactive elsewhere. Calls of active or inactive are those of the source. Rule as the data show it: active = inhibition above about 30%; inconclusive = no clear call, values can overlap the other calls; inactive = below that.

This is an account of results in PubChem BioAssay AID440 (NMMLSC, 2006).

The assay addresses fMet-Leu-Phe receptor (Homo sapiens) (UniProt P21462). Description: small molecules displacing FPR fluorescent ligand – cell-based, FPRL1 counter-screen, flow cytometry, primary screen (AID 440).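 Also: 0% = buffer wells and 100% = receptor blocker peptide wells.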 The following applies: FPR-expressing cells, fluorescent ligand binding, hits give high values, concentration not given here. Background: Counterscreens check selectivity or assay interference.
Regarding `O=C(OC1CN2CCC1CC2)C(CO)(c1ccccc1)c1ccccc1` (stereo unspecified), the inhibition is inactive: -5.1%.
